Source: patent publication US20150010617A1
Where two headings read alike, the source gives them in different places.

Columns and labels:
Test in all cases: cell-based or functional assay
[1] = biological target: Pulmozyme® (dornase alfa), mammalian (CHO) cell expressed recombinant human DNase I (human) (UniProt P24855)
[2] = biological target: plant-expressed recombinant human DNase I (human) (UniProt P24855)
[3] = biological target: Pulmozyme® (dornase alfa), mammalian (CHO) cell expressed recombinant human DNase I (human) (UniProt P24855); remark: listed apart in the source
[4] = biological target: plant-expressed recombinant human DNase I (human) (UniProt P24855); remark: listed apart in the source

- IC50 (µg/ml) of actin for inhibition of DNase I catalytic activity, DNA-methyl green assay [1]: 0.687 µg/mL
- IC50 (µg/ml) of actin for inhibition of DNase I catalytic activity, DNA-methyl green assay [2]: 1.82 µg/mL
- IC50 (µg/ml) of actin for inhibition of DNase I catalytic activity, DNA-methyl green assay [3]: 0.546 µg/mL
- IC50 (µg/ml) of actin for inhibition of DNase I catalytic activity, DNA-methyl green assay; Prh DNase I batch 1 [4]: 1.71 µg/mL
- IC50 (µg/ml) of actin for inhibition of DNase I catalytic activity, DNA-methyl green assay; Prh DNase I batch 2 [4]: 1.85 µg/mL
Substance: human non-muscle actin (Cytoskeleton; cat No. APHL99) (from UniProt P60709 2-375)
